Structures are written as SMILES.

The chains behind the UniProt entries cited, without tags or fusion partners. Residues count along the entry.
UniProt P08709, 61-212 limits assumed: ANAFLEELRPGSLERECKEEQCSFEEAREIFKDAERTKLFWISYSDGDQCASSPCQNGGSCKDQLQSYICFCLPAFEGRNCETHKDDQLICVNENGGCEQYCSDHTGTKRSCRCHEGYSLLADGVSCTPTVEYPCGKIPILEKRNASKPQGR
UniProt P08709, 213-466 limits assumed: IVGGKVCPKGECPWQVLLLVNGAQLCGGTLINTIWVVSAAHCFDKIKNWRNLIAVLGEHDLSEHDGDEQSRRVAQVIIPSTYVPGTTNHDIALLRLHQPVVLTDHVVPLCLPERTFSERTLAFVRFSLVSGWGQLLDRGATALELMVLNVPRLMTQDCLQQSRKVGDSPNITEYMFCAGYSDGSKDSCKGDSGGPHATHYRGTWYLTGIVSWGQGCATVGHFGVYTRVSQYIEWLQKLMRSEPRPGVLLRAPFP
UniProt P13726, 33-295 partner limits assumed: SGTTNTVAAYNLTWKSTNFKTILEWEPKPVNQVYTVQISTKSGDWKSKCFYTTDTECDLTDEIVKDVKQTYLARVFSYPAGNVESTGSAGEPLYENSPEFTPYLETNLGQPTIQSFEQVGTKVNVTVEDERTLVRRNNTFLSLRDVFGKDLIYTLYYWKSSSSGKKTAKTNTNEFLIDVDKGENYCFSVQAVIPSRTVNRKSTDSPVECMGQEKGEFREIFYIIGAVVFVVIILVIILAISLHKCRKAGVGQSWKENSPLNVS

As a reminder, the Ki is the equilibrium dissociation constant of an inhibitor or competing ligand from its target.

In this test the target is factor VIIa/tissue factor (Homo sapiens, UniProt P08709). The test can be described thus: Factor VIIa (FVIIa) chromogenic assay. The following applies: read-out: Ki (FVIIa); human factor VIIa 5 nM and TF 10 nM, chromogenic substrate S-2288 500 μM, 15 min preincubation, 25° C., pH 8.15. The source says: The ability of compounds of formula I to inhibit factor VIIa or other enzymes like factor Xa, thrombin, plasmin, or trypsin can be assessed by determining the concentration of the compound of formula I that inhibits enzyme activity by 50%, i.e., the IC50 value, which is related to the inhibition constant Ki. Purified enzymes are used in chromogenic assays. […]
The inhibitory activity (expressed as inhibition constant Ki (FVIIa)) of compounds of formula I towards factor VIIa/tissue factor activity was determined using a chromogenic assay essentially as described previously (J. A. Ostrem et al., Biochemistry 37 (1998) 1053-1059, which is incorporated herein by reference). Kinetic assays were conducted at 25° C. in half-area microtiter plates (Costar Corp., Cambridge, Mass.) using a kinetic plate reader (Molecular Devices Spectramax 250). […]

Consider `C=CCOC(=O)N[C@@H](Cc1ccc(C(=N)N)cc1)C(=O)N[C@@H](CCC(=O)O)C(=O)NC1CCN(S(=O)(=O)c2cc(Cl)ccc2Cl)CC1`, for which the Ki worked out at 670 nM.
